Sequences of proteins named here, by UniProt entry; tags and fusion partners are left off.
UniProt P28647, whole entry: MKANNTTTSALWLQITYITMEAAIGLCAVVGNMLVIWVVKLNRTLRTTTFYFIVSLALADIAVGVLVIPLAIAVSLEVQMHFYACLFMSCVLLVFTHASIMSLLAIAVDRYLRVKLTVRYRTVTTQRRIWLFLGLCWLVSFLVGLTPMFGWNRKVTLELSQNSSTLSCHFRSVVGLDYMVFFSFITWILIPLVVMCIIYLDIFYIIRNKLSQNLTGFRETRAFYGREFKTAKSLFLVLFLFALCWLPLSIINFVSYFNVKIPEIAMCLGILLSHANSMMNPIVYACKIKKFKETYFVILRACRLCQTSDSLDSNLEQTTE

In article PMC3616494 (Journal of medicinal chemistry, 2008):

Target: rat A3 AR (Rattus norvegicus, UniProt P28647)
Assay: Radioligand binding at rat A3 AR

O[C@@H]1[C@H](O)CS[C@H]1n1cnc2c(NCc3cccc(Cl)c3)nc(Cl)nc21 [Compound 6c]
Ki: 6.2 ± 1.8 nM
